What was measured:
JAK-2 enzyme = JAK-2 enzyme (Homo sapiens, UniProt O60674); assay: JAK2 Inhibition Assay; details: read-out: JAK2 enzyme inhibition data (Ki); 15 μM poly(Glu)4Tyr, 12 μM ATP, 25° C.
JAK3 = JAK3 (Homo sapiens, UniProt P52333); assay: JAK3 Inhibition Assay; details: read-out: JAK3 enzyme inhibition data (Ki); 1 μM poly(Glu)4Tyr, 5 μM ATP, 1 nM JAK3, 25° C.

Chains of the proteins cited; added tags and fusions are not shown.
UniProt O60674, whole entry: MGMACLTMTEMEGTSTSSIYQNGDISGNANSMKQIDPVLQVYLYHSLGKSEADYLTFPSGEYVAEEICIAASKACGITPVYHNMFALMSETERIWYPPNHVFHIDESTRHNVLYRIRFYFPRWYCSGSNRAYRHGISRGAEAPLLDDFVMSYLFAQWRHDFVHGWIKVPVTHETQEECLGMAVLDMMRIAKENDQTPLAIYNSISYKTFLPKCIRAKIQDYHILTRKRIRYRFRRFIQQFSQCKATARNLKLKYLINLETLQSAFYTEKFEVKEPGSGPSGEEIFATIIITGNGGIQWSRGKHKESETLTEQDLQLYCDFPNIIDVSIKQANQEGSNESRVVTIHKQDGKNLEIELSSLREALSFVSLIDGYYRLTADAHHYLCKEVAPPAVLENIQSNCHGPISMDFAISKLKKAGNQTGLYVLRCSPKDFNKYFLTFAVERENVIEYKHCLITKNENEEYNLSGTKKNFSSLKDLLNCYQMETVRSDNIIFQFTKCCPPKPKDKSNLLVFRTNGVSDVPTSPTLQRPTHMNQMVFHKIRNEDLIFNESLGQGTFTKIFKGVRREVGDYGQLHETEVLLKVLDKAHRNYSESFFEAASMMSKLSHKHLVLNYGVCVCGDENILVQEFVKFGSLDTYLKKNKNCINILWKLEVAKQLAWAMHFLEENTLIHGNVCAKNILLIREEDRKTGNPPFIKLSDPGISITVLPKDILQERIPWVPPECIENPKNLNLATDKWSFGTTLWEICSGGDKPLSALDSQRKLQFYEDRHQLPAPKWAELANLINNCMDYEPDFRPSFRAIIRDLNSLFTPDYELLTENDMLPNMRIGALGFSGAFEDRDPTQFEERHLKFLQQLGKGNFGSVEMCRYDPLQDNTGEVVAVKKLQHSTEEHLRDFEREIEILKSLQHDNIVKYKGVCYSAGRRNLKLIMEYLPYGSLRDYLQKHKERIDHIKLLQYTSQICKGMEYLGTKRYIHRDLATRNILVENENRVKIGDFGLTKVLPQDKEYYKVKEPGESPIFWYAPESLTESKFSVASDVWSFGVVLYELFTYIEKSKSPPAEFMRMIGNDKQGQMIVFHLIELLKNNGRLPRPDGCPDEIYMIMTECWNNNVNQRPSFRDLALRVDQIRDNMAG
UniProt P52333, whole entry: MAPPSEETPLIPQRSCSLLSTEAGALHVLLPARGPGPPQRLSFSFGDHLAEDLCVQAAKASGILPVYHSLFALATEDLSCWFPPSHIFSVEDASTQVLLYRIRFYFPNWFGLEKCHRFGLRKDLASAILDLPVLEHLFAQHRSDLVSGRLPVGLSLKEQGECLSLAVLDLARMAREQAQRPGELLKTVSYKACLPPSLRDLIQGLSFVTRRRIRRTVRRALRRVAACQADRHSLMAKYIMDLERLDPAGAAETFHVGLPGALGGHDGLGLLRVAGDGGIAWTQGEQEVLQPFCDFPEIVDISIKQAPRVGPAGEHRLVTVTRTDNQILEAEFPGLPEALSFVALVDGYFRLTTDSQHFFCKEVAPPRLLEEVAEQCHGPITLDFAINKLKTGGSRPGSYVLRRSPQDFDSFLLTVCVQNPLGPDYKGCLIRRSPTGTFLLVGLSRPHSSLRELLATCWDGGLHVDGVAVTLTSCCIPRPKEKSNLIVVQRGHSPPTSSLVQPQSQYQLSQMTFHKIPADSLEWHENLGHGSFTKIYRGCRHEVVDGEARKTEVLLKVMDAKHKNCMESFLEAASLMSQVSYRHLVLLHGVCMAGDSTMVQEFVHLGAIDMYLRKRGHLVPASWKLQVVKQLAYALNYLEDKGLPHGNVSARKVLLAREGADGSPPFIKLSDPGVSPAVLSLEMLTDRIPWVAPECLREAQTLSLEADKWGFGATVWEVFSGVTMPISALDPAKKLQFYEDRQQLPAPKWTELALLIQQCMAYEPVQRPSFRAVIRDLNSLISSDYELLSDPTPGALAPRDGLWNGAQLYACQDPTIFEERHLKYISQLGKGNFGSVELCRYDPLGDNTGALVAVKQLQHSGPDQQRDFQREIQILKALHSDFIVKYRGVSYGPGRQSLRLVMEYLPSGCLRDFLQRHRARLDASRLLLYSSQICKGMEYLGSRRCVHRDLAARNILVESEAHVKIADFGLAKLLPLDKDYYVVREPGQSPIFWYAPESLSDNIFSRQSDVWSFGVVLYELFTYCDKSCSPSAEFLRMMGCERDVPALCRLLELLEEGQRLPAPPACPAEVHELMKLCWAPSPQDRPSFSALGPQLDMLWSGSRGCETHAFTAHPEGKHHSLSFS

SMILES: COC(=O)C1CCCCC1C(=O)Nc1nc(-c2ccnc3[nH]ccc23)cs1 (single isomer, unassigned)
- Ki (JAK-2 enzyme): < 100 nM
- Ki (JAK3): 100 to 500 nM

— US20090227607A1, “DEAZAPURINES USEFUL AS INHIBITORS OF JANUS KINASES” (priority 2006, published 2009)
